This is an account of results in PubChem BioAssay AID652017 (The Scripps Research Institute Molecular Screening Center, 2013).

The entries are a selection whose mix differs from that of the whole data set. Some results for these compounds are left out of this collection, so the calls shown say nothing about other tests. The source made the active and inactive calls. No stated cut-off is given here; in the data, active means activation above about 7.8%; inactive means the rest.

The assay can be described thus: SMARCA2 (BRM) function activators, primary screen, cell-based, luminescence, high throughput (AID 652017).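 Further: 0% = vehicle wells and 100% = reference activator wells.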 The note with it: MG213 cells, MMTV-luciferase reporter, dexamethasone, overnight; at 9.1 µM; stronger effect = higher value. A general note: In a reporter assay the amount or activity of a reporter protein is the signal.
As for `CN1[C@@H]2CC[C@H]1CC(OC(=O)C(O)(c1ccccc1)c1ccccc1)C2` (stereo partly specified), the activation is inactive: -1.77%. The result for `O=C(NCC1(N2CCCCC2)CCCCC1)c1cc([N+](=O)[O-])ccc1Cl` reads inactive: 1.07%; that for `Cc1ccc(C(=O)NCC2(N3CCCCC3)CCCCC2)cc1`, inactive: 0.41%. Then `CC(C)N1C(=O)CC2(CCN(CCOC(=O)C(O)(c3ccccc3)c3ccccc3)CC2)C1=O`, with inactive: -3.54%; and `CCN(CC)CC(C)C(C)OC(=O)C(O)(c1ccccc1)c1ccccc1` (stereo unspecified), with inactive: 0.81%.

For `COc1cc(SC)ccc1C(=O)NCC1(N(C)C)CCCCC1`, the activation is inactive: -2.71%. Then `Cc1ccccc1C(=O)NCC1(N2CCCCC2)CCCCC1`, with inactive: 4.38%.

Consider `CN(C)c1ccc(C(=O)NCC2(N(C)C)CCCCC2)cc1`, for which the activation is inactive: 4.52%. The result for `CN(C)C1CCCC1OC(=O)C(O)(c1ccccc1)c1ccccc1` (stereo unspecified) reads inactive: -3.66%; that for `CCN1CCCC(OC(=O)C2(O)c3ccccc3C=Cc3ccccc32)C1` (stereo unspecified), inactive: 0.6%. Then `Cc1cc(C(=O)NCC2(N3CCCCC3)CCCCC2)ccc1[N+](=O)[O-]`, with inactive: -0.15%; and `O=C(NCC1(N2CCCCC2)CCCCC1)c1cccc(Br)c1`, with inactive: 2.25%; and `COc1ccc(C(=O)NCC2(N(C)C)CCCCC2)cc1`, with inactive: -1.9%. The result for `C=CCN1CCN(CCOC(=O)C(O)(c2ccccc2)c2ccccc2)CC1` reads inactive: 0.18%; that for `O=C(NCC1(N2CCCCC2)CCCCC1)c1cc(F)c(F)cc1Cl`, inactive: -1.95%. As for `COc1cc(C(=O)NCC2(N(C)C)CCCCC2)c([N+](=O)[O-])cc1OC`, the activation is inactive: 0%. Then `CN(C)C1(CNC(=O)c2ccc(Br)cc2)CCCCC1`, with inactive: -2.39%. For `O=C(NCC1(N2CCCCC2)CCCCC1)c1cccc(Cl)c1`, the activation was inactive: -1.16%. As to `COc1cccc(C(=O)NCC2(N3CCCCC3)CCCCC2)c1`, the activation is inactive: -4.36%. The result for `COc1ccc(Cl)cc1C(=O)NCC1(N(C)C)CCCCC1` reads inactive: -1.54%; that for `O=C(OC1CN2CCC1CC2)C(CO)(c1ccccc1)c1ccccc1` (stereo unspecified), inactive: 0.89%; that for `CN(C)c1cccc(C(=O)NCC2(N(C)C)CCCCC2)c1`, inactive: 1.81%. Turning to `CC(C)Oc1ccc(C(=O)NCC2(N(C)C)CCCCC2)cc1`, the activation was inactive: -4.31%. The result for `O=C(OCCN1CCCC1)C(O)(c1ccccc1)c1ccccc1` reads inactive: -0.51%. The result for `COc1ccc(Br)c(C(=O)NCC2(N3CCCCC3)CCCCC2)c1` reads inactive: -2.53%. Then `C=C(C)C#CC(O)(C(=O)OC1CCN(C)CC1)c1ccccc1` (stereo unspecified), with inactive: -5.03%.
